Cyclic peptide permeability, from CycPeptMPDB

Collected by the curators of CycPeptMPDB (Li et al. 2023) from Kelly et al. 2021, doi:10.1021/jacs.0c06115.

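The data file gives no further conditions (lipid, pH, time, direction or concentration), and values from different papers need not be comparable. Other peptides of the study may be missing here. Entries at the database's floor value (log10 P of -10) are not listed.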

PAMPA measures passive passage through an artificial lipid membrane.
P is given in units of 10^-6 cm/s (from log10 values with two decimals); larger means faster passage.

* CC(=O)N1CCC[C@H]1C(=O)N[C@@H]1C(=O)N(C)[C@H](CC(C)C)C(=O)N(C)[C@H](CC(C)C)C(=O)N(C)[C@H](CC(C)C)C(=O)N(C)[C@@H](CC(C)C)C(=O)N(C)[C@@H](C)C(=O)N[C@@H](CC(C)C)C(=O)N2CCC[C@@H]2C(=O)O[C@@H]1C: PAMPA 8.3 × 10^-6 cm/s
* CC(=O)N1CCC[C@@H]1C(=O)N(C)[C@@H](CC(C)C)C(=O)N[C@@H]1C(=O)N[C@H](CC(C)C)C(=O)N[C@@H](CC(C)C)C(=O)N[C@H](CC(C)C)C(=O)N[C@H](C)C(=O)N[C@H](CC(C)C)C(=O)N2CCC[C@@H]2C(=O)O[C@@H]1C: PAMPA 0.22 × 10^-6 cm/s
* CC(=O)N1CCC[C@@H]1C(=O)N(C)[C@H](CC(C)C)C(=O)N[C@@H]1C(=O)N[C@@H](CC(C)C)C(=O)N[C@H](CC(C)C)C(=O)N[C@H](CC(C)C)C(=O)N[C@@H](C)C(=O)N[C@@H](CC(C)C)C(=O)N2CCC[C@H]2C(=O)O[C@@H]1C: PAMPA 0.032 × 10^-6 cm/s
* CC(=O)N1CCC[C@H]1C(=O)N(C)[C@@H](CC(C)C)C(=O)N[C@@H]1C(=O)N[C@H](CC(C)C)C(=O)N[C@H](CC(C)C)C(=O)N[C@H](CC(C)C)C(=O)N[C@H](C)C(=O)N[C@H](CC(C)C)C(=O)N2CCC[C@@H]2C(=O)O[C@@H]1C: PAMPA 0.001 × 10^-6 cm/s
* CC(=O)N1CCC[C@H]1C(=O)N(C)[C@@H](CC(C)C)C(=O)N[C@@H]1C(=O)N[C@H](CC(C)C)C(=O)N(C)[C@H](CC(C)C)C(=O)N(C)[C@@H](CC(C)C)C(=O)N(C)[C@@H](C)C(=O)N[C@@H](CC(C)C)C(=O)N2CCC[C@H]2C(=O)O[C@@H]1C: PAMPA 4.1 × 10^-6 cm/s
* CC(=O)N1CCC[C@@H]1C(=O)N(C)[C@@H](CC(C)C)C(=O)N[C@@H]1C(=O)N(C)[C@H](CC(C)C)C(=O)N[C@H](CC(C)C)C(=O)N(C)[C@H](CC(C)C)C(=O)N[C@H](C)C(=O)N[C@H](CC(C)C)C(=O)N2CCC[C@@H]2C(=O)O[C@@H]1C: PAMPA 1.6 × 10^-6 cm/s
* CC(=O)N1CCC[C@@H]1C(=O)N(C)[C@H](CC(C)C)C(=O)N[C@@H]1C(=O)N[C@@H](CC(C)C)C(=O)N[C@@H](CC(C)C)C(=O)N(C)[C@H](CC(C)C)C(=O)N(C)[C@@H](C)C(=O)N[C@H](CC(C)C)C(=O)N2CCC[C@H]2C(=O)O[C@@H]1C: PAMPA 0.79 × 10^-6 cm/s
* CC(=O)N1CCC[C@H]1C(=O)N(C)[C@H](CC(C)C)C(=O)N[C@@H]1C(=O)N[C@H](CC(C)C)C(=O)N(C)[C@H](CC(C)C)C(=O)N[C@H](CC(C)C)C(=O)N(C)[C@@H](C)C(=O)N[C@@H](CC(C)C)C(=O)N2CCC[C@@H]2C(=O)O[C@@H]1C: PAMPA 4.1 × 10^-6 cm/s
* CC(=O)N1CCC[C@H]1C(=O)N(C)[C@H](CC(C)C)C(=O)N[C@@H]1C(=O)N[C@@H](CC(C)C)C(=O)N(C)[C@@H](CC(C)C)C(=O)N(C)[C@@H](CC(C)C)C(=O)N[C@@H](C)C(=O)N[C@H](CC(C)C)C(=O)N2CCC[C@H]2C(=O)O[C@@H]1C: PAMPA 1.1 × 10^-6 cm/s
* CC(=O)N1CCC[C@H]1C(=O)N(C)[C@@H](CC(C)C)C(=O)N[C@@H]1C(=O)N[C@H](CC(C)C)C(=O)N[C@@H](CC(C)C)C(=O)N[C@@H](CC(C)C)C(=O)N[C@@H](C)C(=O)N[C@@H](CC(C)C)C(=O)N2CCC[C@H]2C(=O)O[C@@H]1C: PAMPA 0.79 × 10^-6 cm/s
* CC(=O)N1CCC[C@H]1C(=O)N(C)[C@@H](CC(C)C)C(=O)N[C@@H]1C(=O)N(C)[C@H](CC(C)C)C(=O)N(C)[C@@H](CC(C)C)C(=O)N(C)[C@H](CC(C)C)C(=O)N(C)[C@@H](C)C(=O)N[C@H](CC(C)C)C(=O)N2CCC[C@@H]2C(=O)O[C@@H]1C: PAMPA 4 × 10^-6 cm/s
* CC(=O)N1CCC[C@@H]1C(=O)N(C)[C@@H](CC(C)C)C(=O)N[C@@H]1C(=O)N[C@@H](CC(C)C)C(=O)N[C@@H](CC(C)C)C(=O)N[C@@H](CC(C)C)C(=O)N[C@@H](C)C(=O)N[C@@H](CC(C)C)C(=O)N2CCC[C@@H]2C(=O)O[C@@H]1C: PAMPA 0.12 × 10^-6 cm/s
* CC(=O)N1CCC[C@H]1C(=O)N[C@@H]1C(=O)N[C@H](CC(C)C)C(=O)N(C)[C@H](CC(C)C)C(=O)N[C@@H](CC(C)C)C(=O)N(C)[C@@H](CC(C)C)C(=O)N[C@H](C)C(=O)N[C@@H](CC(C)C)C(=O)N2CCC[C@@H]2C(=O)O[C@@H]1C: PAMPA 7.9 × 10^-6 cm/s
* CC(=O)N[C@@H]1C(=O)N2CCC[C@H]2C(=O)N(C)[C@H](CC(C)C)C(=O)N[C@@H](CC(C)C)C(=O)N[C@@H](CC(C)C)C(=O)N(C)[C@H](CC(C)C)C(=O)N(C)[C@H](C)C(=O)N[C@@H](CC(C)C)C(=O)N2CCC[C@@H]2C(=O)O[C@@H]1C: PAMPA 1.7 × 10^-6 cm/s
* CC(=O)N1CCC[C@H]1C(=O)N[C@@H]1C(=O)N(C)[C@H](CC(C)C)C(=O)N[C@@H](CC(C)C)C(=O)N(C)[C@H](CC(C)C)C(=O)N[C@H](CC(C)C)C(=O)N(C)[C@@H](C)C(=O)N[C@@H](CC(C)C)C(=O)N2CCC[C@@H]2C(=O)O[C@@H]1C: PAMPA 16 × 10^-6 cm/s
* CC(=O)N1CCC[C@H]1C(=O)N(C)[C@@H](CC(C)C)C(=O)N[C@@H]1C(=O)N(C)[C@H](CC(C)C)C(=O)N(C)[C@H](CC(C)C)C(=O)N[C@@H](CC(C)C)C(=O)N(C)[C@@H](C)C(=O)N[C@H](CC(C)C)C(=O)N2CCC[C@@H]2C(=O)O[C@@H]1C: PAMPA 5.8 × 10^-6 cm/s
* CC(=O)N1CCC[C@@H]1C(=O)N(C)[C@@H](CC(C)C)C(=O)N[C@@H]1C(=O)N(C)[C@@H](CC(C)C)C(=O)N[C@@H](CC(C)C)C(=O)N[C@@H](CC(C)C)C(=O)N[C@@H](C)C(=O)N[C@@H](CC(C)C)C(=O)N2CCC[C@@H]2C(=O)O[C@@H]1C: PAMPA 0.051 × 10^-6 cm/s

A selection of 2 entries from above:

| compound | PAMPA (10^-6 cm/s) |
|---|---|
| CC(=O)N1CCC[C@H]1C(=O)N(C)[C@@H](CC(C)C)C(=O)N[C@@H]1C(=O)N(C)[C@H](CC(C)C)C(=O)N(C)[C@@H](CC(C)C)C(=O)N(C)[C@H](CC(C)C)C(=O)N(C)[C@@H](C)C(=O)N[C@H](CC(C)C)C(=O)N2CCC[C@@H]2C(=O)O[C@@H]1C | 4 |
| CC(=O)N1CCC[C@H]1C(=O)N(C)[C@@H](CC(C)C)C(=O)N[C@@H]1C(=O)N[C@H](CC(C)C)C(=O)N[C@@H](CC(C)C)C(=O)N[C@@H](CC(C)C)C(=O)N[C@@H](C)C(=O)N[C@@H](CC(C)C)C(=O)N2CCC[C@H]2C(=O)O[C@@H]1C | 0.79 |